Test results published in patent publication US20240293394A1, “METHODS FOR TREATING ANTIPSYCHOTIC-INDUCED WEIGHT GAIN” (priority 2010, published 2024).

How the values were obtained:
[1] = Olanzapine-related changes (body weight, adipose tissue, serum chemistry) in female cynomolgus monkeys; format: in vivo; settings: olanzapine only
Method: Clinical observations and weight gain were assessed over a 28-day treatment period. […] Beginning two weeks prior to the study, monkeys were given ad libitum access to a highly palatable, high caloric diet. On the day prior to the start of treatment, monkeys were weighed and assigned to groups using a randomized block design based on body weight (BW); average BW across the 3 groups was 3.1+0.08 kg on the day of randomization. Also, baseline whole body CT scans were taken on the day prior to initiation of treatments. […] A second CT scan was conducted on day 29.

[2] = patients; Taylor et al., Acta Psychiatr Scand. 2001; cited from earlier work

Compound | average body weight gain ([1]; PO twice daily, up to 6 mg/kg daily, 28 days, ad libitum high caloric diet) [kg] | average body weight gain, % of Day 0 BW ([1]; 28 days) [%] | concentration of LDL ([1]; serum, Day 28) [mg/dL] | concentration of triglycerides (TGs) ([1]; serum, Day 28) [mg/dL] | weight gain associated with atypical antipsychotic [2]
Cc1cc2c(s1)Nc1ccccc1N=C2N1CCN(C)CC1 [olanzapine, 2-methyl-4-(4-methyl-1-piperazinyl)-10H-thieno[2,3-b][1,5]benzodiazepine] | 0.46 | 15 | 105.8 | 86.6 | greatest
Cc1nc2n(c(=O)c1CCN1CCC(c3noc4cc(F)ccc34)CC1)CCCC2 [risperidone, 4-[2-[4-(6-fluorobenzo[d]isoxazol-3-yl)-1-piperidyl]ethyl]-3-methyl-2,6-diazabicyclo[4.4.0]deca-1,3-dien-5-one] |  |  |  |  | greatest
